Assay results from patent US9518026B2, “5-aminopyrazole-4-carboxamide inhibitors of CDPK1 from T. gondii and C. parvum” (UNIVERSITY OF WASHINGTON THROUGH ITS CENTER FOR …, priority 2013, dated 2016).

Chains of the proteins cited; added tags and fusions are not shown. Lines headed by an entry give the natural chain unless they say otherwise; changes in a name come on top. Residues count along the entry.
UniProt A3FQ16, 1-538: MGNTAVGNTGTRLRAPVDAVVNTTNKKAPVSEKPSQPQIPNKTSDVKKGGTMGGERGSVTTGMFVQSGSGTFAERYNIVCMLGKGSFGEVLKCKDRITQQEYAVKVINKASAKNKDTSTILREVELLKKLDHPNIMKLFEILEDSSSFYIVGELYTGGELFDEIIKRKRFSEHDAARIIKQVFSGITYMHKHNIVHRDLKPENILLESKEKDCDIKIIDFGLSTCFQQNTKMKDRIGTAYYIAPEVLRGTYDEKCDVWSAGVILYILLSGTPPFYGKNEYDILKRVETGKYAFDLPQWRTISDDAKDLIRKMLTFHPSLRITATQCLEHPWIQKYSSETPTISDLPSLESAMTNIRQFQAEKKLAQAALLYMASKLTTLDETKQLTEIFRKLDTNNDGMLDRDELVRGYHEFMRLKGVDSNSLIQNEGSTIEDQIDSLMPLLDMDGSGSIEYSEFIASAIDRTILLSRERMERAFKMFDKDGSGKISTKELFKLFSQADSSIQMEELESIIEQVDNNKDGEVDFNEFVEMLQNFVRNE
UniProt P00519, 242-493: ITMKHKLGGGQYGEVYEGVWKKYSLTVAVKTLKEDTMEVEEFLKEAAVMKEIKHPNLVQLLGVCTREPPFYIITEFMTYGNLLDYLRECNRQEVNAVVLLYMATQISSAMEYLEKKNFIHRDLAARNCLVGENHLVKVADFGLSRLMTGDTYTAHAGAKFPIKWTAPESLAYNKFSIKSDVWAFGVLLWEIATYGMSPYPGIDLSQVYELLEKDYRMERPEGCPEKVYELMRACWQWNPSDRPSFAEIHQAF
UniProt Q9BJF5, 1-507: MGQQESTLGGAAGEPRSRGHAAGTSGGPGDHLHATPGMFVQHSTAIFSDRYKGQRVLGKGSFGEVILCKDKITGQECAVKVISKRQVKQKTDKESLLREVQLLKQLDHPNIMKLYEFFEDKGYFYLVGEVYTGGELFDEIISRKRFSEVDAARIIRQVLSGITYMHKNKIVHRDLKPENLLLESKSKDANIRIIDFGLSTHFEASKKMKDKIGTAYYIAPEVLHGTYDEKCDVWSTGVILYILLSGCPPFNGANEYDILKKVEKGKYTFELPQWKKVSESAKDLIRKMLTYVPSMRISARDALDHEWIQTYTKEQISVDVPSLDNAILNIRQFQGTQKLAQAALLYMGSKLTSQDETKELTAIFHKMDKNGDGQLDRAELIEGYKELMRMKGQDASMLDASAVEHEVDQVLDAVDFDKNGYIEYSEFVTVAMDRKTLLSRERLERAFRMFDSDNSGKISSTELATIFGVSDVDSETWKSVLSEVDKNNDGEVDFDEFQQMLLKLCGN
UniProt Q12809: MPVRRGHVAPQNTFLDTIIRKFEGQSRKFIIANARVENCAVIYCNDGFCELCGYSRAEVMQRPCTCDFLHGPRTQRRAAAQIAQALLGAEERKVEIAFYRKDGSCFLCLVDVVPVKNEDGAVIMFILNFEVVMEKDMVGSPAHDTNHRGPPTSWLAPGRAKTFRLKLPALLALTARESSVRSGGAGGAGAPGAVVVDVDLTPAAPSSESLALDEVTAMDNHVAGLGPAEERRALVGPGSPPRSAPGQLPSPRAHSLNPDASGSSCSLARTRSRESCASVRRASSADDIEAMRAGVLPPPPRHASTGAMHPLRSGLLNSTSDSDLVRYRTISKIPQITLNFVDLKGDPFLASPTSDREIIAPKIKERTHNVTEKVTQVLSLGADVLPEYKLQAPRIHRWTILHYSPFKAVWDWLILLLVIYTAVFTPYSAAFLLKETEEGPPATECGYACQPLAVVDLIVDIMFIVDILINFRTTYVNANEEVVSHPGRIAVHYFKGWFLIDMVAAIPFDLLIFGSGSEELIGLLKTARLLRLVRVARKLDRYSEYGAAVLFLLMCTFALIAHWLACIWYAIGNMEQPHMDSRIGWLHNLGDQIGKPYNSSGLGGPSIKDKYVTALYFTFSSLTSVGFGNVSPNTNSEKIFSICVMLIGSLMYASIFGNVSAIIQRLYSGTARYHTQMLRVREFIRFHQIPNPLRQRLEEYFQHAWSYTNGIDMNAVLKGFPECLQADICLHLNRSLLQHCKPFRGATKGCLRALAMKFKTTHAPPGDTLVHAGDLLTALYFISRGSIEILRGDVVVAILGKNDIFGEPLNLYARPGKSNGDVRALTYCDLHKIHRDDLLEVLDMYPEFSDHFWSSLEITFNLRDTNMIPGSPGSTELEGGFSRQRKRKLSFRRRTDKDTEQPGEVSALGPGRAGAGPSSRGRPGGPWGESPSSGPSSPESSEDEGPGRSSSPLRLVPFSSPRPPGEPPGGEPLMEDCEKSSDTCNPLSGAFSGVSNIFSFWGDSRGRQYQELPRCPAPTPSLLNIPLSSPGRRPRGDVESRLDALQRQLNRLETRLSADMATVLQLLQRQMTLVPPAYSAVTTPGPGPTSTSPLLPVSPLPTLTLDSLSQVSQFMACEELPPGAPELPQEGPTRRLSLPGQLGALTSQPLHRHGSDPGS
UniProt Q9UM73, 19-1620, species assumed: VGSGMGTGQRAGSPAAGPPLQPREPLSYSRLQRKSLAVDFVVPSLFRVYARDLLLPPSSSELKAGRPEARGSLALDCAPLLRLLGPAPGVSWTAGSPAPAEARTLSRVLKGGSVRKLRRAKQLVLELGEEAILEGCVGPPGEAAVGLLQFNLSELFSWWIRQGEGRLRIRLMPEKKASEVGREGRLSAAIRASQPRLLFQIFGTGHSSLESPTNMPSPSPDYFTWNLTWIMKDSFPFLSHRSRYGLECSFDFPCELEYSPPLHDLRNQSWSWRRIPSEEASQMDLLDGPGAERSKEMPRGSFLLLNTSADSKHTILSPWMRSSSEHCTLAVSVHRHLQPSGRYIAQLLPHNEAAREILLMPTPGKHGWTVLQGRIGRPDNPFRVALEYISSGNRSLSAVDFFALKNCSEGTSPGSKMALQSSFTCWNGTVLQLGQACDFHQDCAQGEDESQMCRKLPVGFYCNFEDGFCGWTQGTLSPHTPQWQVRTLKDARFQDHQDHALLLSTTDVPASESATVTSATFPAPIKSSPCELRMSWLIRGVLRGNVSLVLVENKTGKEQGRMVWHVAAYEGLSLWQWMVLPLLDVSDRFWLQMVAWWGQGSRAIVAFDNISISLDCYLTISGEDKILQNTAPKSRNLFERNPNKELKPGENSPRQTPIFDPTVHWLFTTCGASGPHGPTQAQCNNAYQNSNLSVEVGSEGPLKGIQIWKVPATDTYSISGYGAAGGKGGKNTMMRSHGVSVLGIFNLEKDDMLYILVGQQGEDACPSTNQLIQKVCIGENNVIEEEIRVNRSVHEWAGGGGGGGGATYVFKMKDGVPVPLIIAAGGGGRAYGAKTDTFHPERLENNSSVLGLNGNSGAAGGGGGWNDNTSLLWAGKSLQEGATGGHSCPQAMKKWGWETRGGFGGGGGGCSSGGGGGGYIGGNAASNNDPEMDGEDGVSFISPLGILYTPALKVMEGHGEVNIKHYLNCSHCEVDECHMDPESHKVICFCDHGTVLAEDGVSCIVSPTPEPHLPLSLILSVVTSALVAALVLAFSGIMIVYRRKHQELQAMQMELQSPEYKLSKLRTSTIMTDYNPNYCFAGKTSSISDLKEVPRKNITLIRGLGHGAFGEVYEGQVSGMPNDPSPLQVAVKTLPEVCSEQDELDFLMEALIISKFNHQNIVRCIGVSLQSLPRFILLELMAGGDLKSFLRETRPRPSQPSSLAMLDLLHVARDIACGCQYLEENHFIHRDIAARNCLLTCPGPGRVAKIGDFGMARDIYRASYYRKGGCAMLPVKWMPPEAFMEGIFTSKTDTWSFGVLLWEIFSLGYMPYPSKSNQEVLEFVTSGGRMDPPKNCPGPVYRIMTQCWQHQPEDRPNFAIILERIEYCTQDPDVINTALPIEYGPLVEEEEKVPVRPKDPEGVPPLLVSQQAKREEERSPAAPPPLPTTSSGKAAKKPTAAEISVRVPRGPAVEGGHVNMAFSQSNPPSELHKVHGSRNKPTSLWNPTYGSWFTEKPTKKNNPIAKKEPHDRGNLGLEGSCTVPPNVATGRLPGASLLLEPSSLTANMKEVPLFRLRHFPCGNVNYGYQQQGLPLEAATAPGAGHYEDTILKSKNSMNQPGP
UniProt P28482, whole entry, looked up, species assumed: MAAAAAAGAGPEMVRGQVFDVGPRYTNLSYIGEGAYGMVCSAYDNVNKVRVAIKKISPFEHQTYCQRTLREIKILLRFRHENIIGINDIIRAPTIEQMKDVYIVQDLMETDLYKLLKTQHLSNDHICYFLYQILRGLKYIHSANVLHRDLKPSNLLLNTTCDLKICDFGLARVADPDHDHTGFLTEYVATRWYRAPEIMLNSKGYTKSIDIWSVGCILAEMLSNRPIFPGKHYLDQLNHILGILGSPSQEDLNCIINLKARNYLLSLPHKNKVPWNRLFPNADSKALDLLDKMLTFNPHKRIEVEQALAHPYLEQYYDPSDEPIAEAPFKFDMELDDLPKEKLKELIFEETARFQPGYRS
UniProt P12931: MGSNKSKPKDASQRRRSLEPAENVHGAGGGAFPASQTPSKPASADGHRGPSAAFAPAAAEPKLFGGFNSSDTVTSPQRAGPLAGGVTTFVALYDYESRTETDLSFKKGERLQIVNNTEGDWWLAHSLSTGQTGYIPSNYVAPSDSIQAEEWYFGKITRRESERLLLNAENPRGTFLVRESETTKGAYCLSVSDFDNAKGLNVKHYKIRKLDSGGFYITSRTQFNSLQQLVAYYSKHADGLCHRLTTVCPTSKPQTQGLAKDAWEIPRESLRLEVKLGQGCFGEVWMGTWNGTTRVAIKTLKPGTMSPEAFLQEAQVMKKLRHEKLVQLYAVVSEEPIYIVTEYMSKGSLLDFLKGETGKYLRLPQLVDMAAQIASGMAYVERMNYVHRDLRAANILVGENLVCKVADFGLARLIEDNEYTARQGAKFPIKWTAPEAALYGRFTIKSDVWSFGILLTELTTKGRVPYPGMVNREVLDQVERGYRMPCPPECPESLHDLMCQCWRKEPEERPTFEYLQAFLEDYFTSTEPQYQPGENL

Columns and labels:
[1] = target: CpCDPK1 (Cryptosporidium parvum (strain Iowa II), UniProt A3FQ16); assay: biochemical
[2] = target: Abl (Homo sapiens (Human), UniProt P00519); assay: biochemical
[3] = target: TgCDPK1 (Toxoplasma gondii, UniProt Q9BJF5); assay: biochemical; type: biochemical
[4] = test system: T. gondii; assay: Inhibition of T. gondii cell proliferation; conditions: Toxoplasma gondii, read-out: T. gondii EC50 (μM)
[5] = target: hERG (Homo sapiens (Human), UniProt Q12809); assay: biochemical; type: binding
[6] = target: ALK (Homo sapiens (Human), UniProt Q9UM73); assay: Kinase panel selectivity: ALK; type: biochemical
[7] = target: Erk2 (Homo sapiens (Human), UniProt P28482); assay: Kinase panel selectivity: Erk2; type: biochemical
[8] = target: Src (Homo sapiens (Human), UniProt P12931); assay: biochemical; conditions: Src IC50 (μM)
[9] = in vivo; conditions: mouse, 10 mg/kg
[10] = Table 1, KinaseGlo, Syntide 2 peptide substrate, read-out: CpCDPK1 IC50
[11] = Table 1, KinaseGlo, Syntide 2 peptide substrate, read-out: TgCDPK1 IC50
[12] = Table 4, read-out: Enzyme Inhibition (IC50, μM) Tg CDPK1

Compound `CCOc1ccc2cc(-c3nn(C(C)(C)C)c(N)c3C(N)=O)ccc2c1` [Compound 3, 5-amino-1-tert-butyl-3-(6-ethoxynaphthalen-2-yl)-1H-pyrazole-4-carboxamide] has an IC50 [1, 10] of 0.004 µM, an IC50 ([1]; Table 4, read-out: Enzyme Inhibition (IC50, μM) Cp CDPK1) of 0.004 µM and an IC50 [2] of 5.1 µM.

With `CCOc1ccc2cc(-c3nn(C(C)(C)C)cc3C(N)=O)ccc2c1` [Compound 5, 1-tert-butyl-3-(6-ethoxynaphthalen-2-yl)-1H-pyrazole-4-carboxamide] the IC50 ([3]; read-out: TgCDPK1 IC50) was 0.13 µM and the IC50 [1, 10] was 0.13 µM.

`CC(C)n1nc(-c2ccc3ccccc3c2)c(C(N)=O)c1N` [Compound 13, 5-amino-1-isopropyl-3-(naphthalen-2-yl)-1H-pyrazole-4-carboxamide] gave an IC50 [3, 11] of 0.006 µM.

Compound `CC(C)(C)Cn1nc(-c2ccc3ccccc3c2)c(C(N)=O)c1N` [Compound 19, 5-amino-3-(naphthalen-2-yl)-1-neopentyl-1H-pyrazole-4-carboxamide] has an EC50 [4] of 0.32 µM.

For `CC(C)(C)n1nc(-c2ccc3cc(O)ccc3c2)c(C(N)=O)c1N` [Compound 24, 5-amino-1-(tert-butyl)-3-(6-hydroxynaphthalen-2-yl)-1H-pyrazole-4-carboxamide], the IC50 [3, 11] was 0.007 µM.

Compound `COc1ccc2cc(-c3nn(C(C)(C)C)c(N)c3C(N)=O)ccc2c1` [Compound 25, 5-amino-1-(tert-butyl)-3-(6-methoxynaphthalen-2-yl)-1H-pyrazole-4-carboxamide] has an IC50 [2] of 4.6 µM.

`CC(C)(C)n1nc(-c2cnc3ccccc3c2)c(C(N)=O)c1N` [Compound 38, 5-amino-1-(tert-butyl)-3-(quinolin-3-yl)-1H-pyrazole-4-carboxamide] gave an EC50 [4] of 1.1 µM.

With `CCOc1ccc2cc(-c3nn(C(C)(C)C)c(N)c3C(N)=O)cnc2c1` [Compound 39, 5-amino-1-(tert-butyl)-3-(7-ethoxyquinolin-3-yl)-1H-pyrazole-4-carboxamide] the IC50 [5] was greater than 30 µM, the Ki [6] was 5.79 µM and the Ki [7] was 6.6 µM. For the same compound, the IC50 ([8]; Table 2) was greater than 30 µM and the IC50 ([8]; Table 3) was greater than 30 µM.

Work on `COc1ccc2cc(-c3nn(C(C)(C)C)c(N)c3C(N)=O)cnc2c1` [Compound 1543, 5-amino-1-tert-butyl-3-(7-methoxyquinolin-3-yl)-1H-pyrazole-4-carboxamide] yielded an IC50 [3, 11] of 0.005 µM and an IC50 [3, 12] of 0.005 µM.

Compound `Cc1ccc2cc(-c3nn(C(C)(C)C)c(N)c3C(N)=O)cnc2c1` [Compound 1544, 5-amino-1-tert-butyl-3-(7-methylquinolin-3-yl)-1H-pyrazole-4-carboxamide] has an IC50 [3, 11] of 0.016 µM.

Compound `CC(C)(C)n1nc(-c2cnc3cc(F)ccc3c2)c(C(N)=O)c1N` [Compound 1545, 5-amino-1-tert-butyl-3-(7-fluoroquinolin-3-yl)-1H-pyrazole-4-carboxamide] has an IC50 [3, 11] of 0.006 µM.

Work on `CC(C)(C)n1nc(-c2cnc3cc(Cl)ccc3c2)c(C(N)=O)c1N` [Compound 1554, 5-amino-1-tert-butyl-3-(7-chloroquinolin-3-yl)-1H-pyrazole-4-carboxamide] yielded an IC50 [3, 11] of 0.036 µM.

For `CC(C)(C)n1nc(-c2cnc3cc(C(F)(F)F)ccc3c2)c(C(N)=O)c1N` [Compound 1555, 5-amino-1-tert-butyl-3-(7-(trifluoromethyl)quinolin-3-yl)-1H-pyrazole-4-carboxamide], the IC50 [3, 11] was 0.247 µM.

`CC(C)Oc1ccc2cc(-c3nn(C(C)(C)C)c(N)c3C(N)=O)cnc2c1` [Compound 1569, 5-amino-1-(tert-butyl)-3-(7-isopropoxyquinolin-3-yl)-1H-pyrazole-4-carboxamide] gave an EC50 [4] of 1.21 µM.

`CCOc1ccc2cc(-c3nn(C4CCCCC4)c(N)c3C(N)=O)cnc2c1` [Compound 1571, 5-amino-1-cyclohexyl-3-(7-ethoxyquinolin-3-yl)-1H-pyrazole-4-carboxamide] gave an IC50 [3, 11] of 0.008 µM, an IC50 [3, 12] of 0.007 µM and a Tmax [9] of 1.33 h.

`CCOc1ccc2cc(-c3nn(C(C)C)c(N)c3C(N)=O)cnc2c1` [Compound 1572, 5-amino-3-(7-ethoxyquinolin-3-yl)-1-isopropyl-1H-pyrazole-4-carboxamide] showed an IC50 [3, 11] of 0.008 µM and an IC50 [3, 12] of 0.006 µM.

With `CCOc1ccc2cc(-c3nn(CC4CCCCC4)c(N)c3C(N)=O)cnc2c1` [Compound 1574, 5-amino-1-(cyclohexylmethyl)-3-(7-ethoxyquinolin-3-yl)-1H-pyrazole-4-carboxamide] the IC50 [3, 11] was 0.08 µM.

In the case of `CCOc1ccc2cc(-c3nn(CC(F)(F)F)c(N)c3C(N)=O)cnc2c1` [Compound 1575, 5-amino-3-(7-ethoxyquinolin-3-yl)-1-(2,2,2-trifluoroethyl)-1H-pyrazole-4-carboxamide], the IC50 [3, 11] is reported as 0.013 µM.

Work on `CC(C)(C)n1nc(-c2cnc3cc(OCC4CC4)ccc3c2)c(C(N)=O)c1N` [Compound 1585, 5-amino-1-(tert-butyl)-3-(7-(cyclopropylmethoxy)quinolin-3-yl)-1H-pyrazole-4-carboxamide] yielded an IC50 [3, 11] of 0.016 µM and an EC50 [4] of 1.47 µM.

Compound `CC(C)(C)n1nc(-c2cnc3cc(OC4CC4)ccc3c2)c(C(N)=O)c1N` [Compound 1586, 5-amino-1-(tert-butyl)-3-(7-cyclopropoxyquinolin-3-yl)-1H-pyrazole-4-carboxamide] has an IC50 [3, 11] of 0.01 µM.

In the case of `CC(C)COc1ccc2cc(-c3nn(C(C)(C)C)c(N)c3C(N)=O)cnc2c1` [Compound 1588, 5-amino-1-(tert-butyl)-3-(7-isobutoxyquinolin-3-yl)-1H-pyrazole-4-carboxamide], the IC50 [3, 11] is reported as 0.086 µM.

`CCOc1ccc2cc(-c3nn(CC(C)(C)C)c(N)c3C(N)=O)cnc2c1` [Compound 1591, 5-amino-3-(7-ethoxyquinolin-3-yl)-1-neopentyl-1H-pyrazole-4-carboxamide] gave an IC50 [3, 11] of 0.021 µM and an IC50 [1, 10] of 0.007 µM.

In the case of `CCc1ccc2cc(-c3nn(C(C)(C)C)c(N)c3C(N)=O)cnc2c1` [Compound 1592, 5-amino-1-(tert-butyl)-3-(7-ethylquinolin-3-yl)-1H-pyrazole-4-carboxamide], the IC50 [3, 11] is reported as 0.115 µM.

In the case of `CCOc1ccc2cc(-c3nn(CC(C)(C)CO)c(N)c3C(N)=O)cnc2c1` [Compound 1596, 5-amino-3-(7-ethoxyquinolin-3-yl)-1-(3-hydroxy-2,2-dimethylpropyl)-1H-pyrazole-4-carboxamide], the IC50 [3, 11] is reported as 0.011 µM and the EC50 [4] is reported as 1.19 µM.

Compound `CCOc1ccc2cc(-c3nn(C(C)(C)C)c(N)c3C(N)=O)ccc2n1` [Compound 1597, 5-amino-1-(tert-butyl)-3-(2-ethoxyquinolin-6-yl)-1H-pyrazole-4-carboxamide] has an IC50 [3, 11] of 0.006 µM and a Tmax [9] of 1.33 h.

In the case of `CCOc1ccc2cc(-c3nn(CC4CC4)c(N)c3C(N)=O)cnc2c1` [Compound 1598, 5-amino-1-(cyclopropylmethyl)-3-(7-ethoxyquinolin-3-yl)-1H-pyrazole-4-carboxamide], the EC50 [4] is reported as 1.21 µM.

Work on `CCOc1ccc2cc(-c3nn(C4CCCCCC4)c(N)c3C(N)=O)cnc2c1` [Compound 1604, 5-amino-1-cycloheptyl-3-(7-ethoxyquinolin-3-yl)-1H-pyrazole-4-carboxamide] yielded an IC50 [3, 11] of 0.006 µM.

`CCOc1ccc2cc(-c3nn(C4CCCC4)c(N)c3C(N)=O)cnc2c1` [Compound 1605, 5-amino-1-cyclopentyl-3-(7-ethoxyquinolin-3-yl)-1H-pyrazole-4-carboxamide] showed an IC50 [3, 11] of 0.011 µM.

Compound `CCOc1ccc2cc(-c3nn(C(C)CCO)c(N)c3C(N)=O)cnc2c1` (stereo not shown) [Compound 1608, 5-amino-3-(7-ethoxyquinolin-3-yl)-1-(4-hydroxybutan-2-yl)-1H-pyrazole-4-carboxamide] has an IC50 [3, 11] of 0.017 µM.

Work on `CCOc1ccc2cc(-c3nn(CC(C)(C)CO)c(N)c3C(N)=O)ccc2n1` [Compound 1622, 5-amino-3-(2-ethoxyquinolin-6-yl)-1-(3-hydroxy-2,2-dimethylpropyl)-1H-pyrazole-4-carboxamide] yielded an IC50 [3, 11] of 0.007 µM.

In the case of `CCOc1ccc2cc(-c3nn(CC4CC4)c(N)c3C(N)=O)ccc2n1` [Compound 1635, 5-amino-1-(cyclopropylmethyl)-3-(2-ethoxyquinolin-6-yl)-1H-pyrazole-4-carboxamide], the EC50 [4] is reported as 0.48 µM.

Compound `CC(C)(CO)Cn1nc(-c2ccc3nc(OC4CCC4)ccc3c2)c(C(N)=O)c1N` [Compound 1645, 5-amino-3-(2-cyclobutoxyquinolin-6-yl)-1-(3-hydroxy-2,2-dimethylpropyl)-1H-pyrazole-4-carboxamide] has an IC50 [3, 11] of 0.01 µM.

In the case of `CCOc1ccc2cc(-c3nn(C4CCC4)c(N)c3C(N)=O)cnc2c1` [Compound 1652], the IC50 [3, 11] is reported as 0.012 µM and the IC50 [1, 10] is reported as 0.003 µM.

Read-outs that look alike come from different tables or passages of the source.
